Each structure is given as a SMILES string.

This assay deals with T1, Acetylcholinesterase (Mus musculus) (UniProt P21836).
T1 sequence (whole entry): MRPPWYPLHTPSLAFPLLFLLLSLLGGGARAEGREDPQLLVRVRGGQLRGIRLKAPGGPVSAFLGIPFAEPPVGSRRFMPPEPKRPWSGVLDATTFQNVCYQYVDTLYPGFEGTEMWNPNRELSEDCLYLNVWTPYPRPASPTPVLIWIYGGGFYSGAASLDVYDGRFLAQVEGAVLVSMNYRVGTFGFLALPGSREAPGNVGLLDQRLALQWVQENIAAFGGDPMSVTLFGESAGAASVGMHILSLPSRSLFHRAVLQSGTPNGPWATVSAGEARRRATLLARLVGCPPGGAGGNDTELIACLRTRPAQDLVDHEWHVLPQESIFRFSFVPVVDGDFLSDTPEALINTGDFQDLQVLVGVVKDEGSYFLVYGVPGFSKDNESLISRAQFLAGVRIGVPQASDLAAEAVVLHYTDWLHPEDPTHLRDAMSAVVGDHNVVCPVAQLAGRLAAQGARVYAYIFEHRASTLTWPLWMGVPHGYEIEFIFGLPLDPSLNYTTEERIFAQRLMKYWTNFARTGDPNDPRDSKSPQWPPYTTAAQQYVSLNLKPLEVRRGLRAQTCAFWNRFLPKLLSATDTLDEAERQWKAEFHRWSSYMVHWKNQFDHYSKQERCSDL
Description: Inhibition of AchE in albino LACA mouse brain at 10^-3 M using acetylthiocholine iodide as substrate incubated for 10 mins measured for 2 mins by Ellman's method relative to control. (In Ellman's method for cholinesterases, released thiocholine reacts with DTNB.)
The inhibition is how much of the control response was suppressed. As to `COc1cc2c(cc1OC)C(=O)/C(=C\c1ccc(N3CCN(C)CC3)cc1)C2`, the inhibition turned out to be 54.7%.

Take `COc1cc2c(cc1OC)C(=O)C(CC1CCN(CC(=O)Nc3ccccc3)CC1)C2` (centres undefined): the inhibition amounted to 5.81%.

In the case of `COc1ccc2c(c1)C(=O)/C(=C\c1ccc(N3CCN(C)CC3)cc1)C2`, the inhibition worked out at 15.5%.

For the compound `COc1cc2c(cc1OC)C(=O)/C(=C\c1ccc(N3CCN(CCCN(C)C)CC3)cc1)C2`, the inhibition stood at 90.3%.

The compound `COc1ccc2c(c1)C/C(=C/c1ccc(N3CCN(CCCN(C)C)CC3)cc1)C2=O` displayed an inhibition of 87%.

In the case of `CCN1CCN(c2ccc(/C=C3/Cc4cc(OC)ccc4C3=O)cc2)CC1`, the inhibition turned out to be 18.6%.

Compound `COc1ccc2c(c1)C(=O)/C(=C\c1ccc(N3CCN(CCCN(C)C)CC3)cc1)C2` had an inhibition of 88%.

`COc1ccc2c(c1)C/C(=C/c1ccc(N3CCN(c4ccccc4)CC3)cc1)C2=O` showed an inhibition of 6.88%.

The compound `COc1ccc2c(c1)C/C(=C/c1ccc(N3CCN(C)CC3)cc1)C2=O` yielded an inhibition of 17.9%.

For the origin of these results see ChEMBL document CHEMBL4177716, “Design, synthesis and pharmacological evaluation of some novel indanone derivatives as acetylcholinesterase inhibitors for the management of cognitive dysfunction” (Bioorg Med Chem, 2018).
